Measured values: ChEMBL document CHEMBL1121573, “2-(Aminomethyl)phenols, a new class of saluretic agents. 1. Effects of nuclear substitution” (J Med Chem, 1980)

System: Rattus norvegicus
Experiment: Oral diuretic activity was evaluated by measuring Na+ excretion in Rat at 27 mg/kg […] (0-5 hr)
Type: ADME, organism-based, Urine
Set-up: dose 27 mg/kg
Conditions: in vivo
Method in brief: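 Female Charles-River rats (150–170 g) were kept overnight on a sugar diet with water ad libitum. Compound was dissolved in DMF, then diluted with water containing Tween 80 (3 drops/100 mL) to a final 4% DMF, and given po in 5.0 mL. Rats were housed three per metabolism cage. Urine from 0–5 h was analysed for Na+, K+ and Cl−, with concurrent placebo controls. Values are mequiv × 100 per cage, geometric mean of three cages per dose.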

NS(=O)(=O)c1cc(C(=O)O)c(NCc2ccco2)cc1Cl [FUROSEMIDE]
Diuretic activity: 1.25
